## Apparent affinities of Ab-14 variants for a coronavirus HR2 peptide

All variants were tested on one target, the spike HR2 peptide PDVDLGDISGINAS (SARS-CoV-2).

Parent: Ab-14, a human scFv built as VH, a 15-residue (Gly4Ser)3 linker, VL. Only the CDRs of the light chain vary.
VH: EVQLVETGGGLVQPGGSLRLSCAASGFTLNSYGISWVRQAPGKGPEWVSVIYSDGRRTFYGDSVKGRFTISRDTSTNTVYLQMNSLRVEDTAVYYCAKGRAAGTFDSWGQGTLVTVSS
VL: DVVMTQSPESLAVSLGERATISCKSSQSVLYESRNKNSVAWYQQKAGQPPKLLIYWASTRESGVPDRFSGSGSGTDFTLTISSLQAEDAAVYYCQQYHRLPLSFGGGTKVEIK

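The parent was found by panning a naive human phage display library on the peptide. The variants were designed computationally from a first round of random CDR variants and then made and measured. Their group label is 14L_Ctrl (Ctrl: baseline library sampled from a position-specific scoring matrix, with some repeated check sequences). In AlphaSeq, yeast of one mating type display the scFv and yeast of the other type display the target. The frequency of each diploid, read from paired DNA barcodes, reflects how well the two displayed proteins bind. The ratio of observed to expected reads was calibrated, replicate by replicate, on BCL2-family standards whose Kd was known from biolayer interferometry. There are six technical replicates.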

The parent's light chain CDRs are KSSQSVLYESRNKNSVA, WASTRES, QQYHRLPLS; each variant's own CDRs replace them letter for letter. Values are log10 of the apparent Kd in nM; lower means stronger binding. Replicates are averaged; those with no signal do not enter the mean. "nd" marks a missing value. The strain was present, yet no cells mated with the target were sequenced in that replicate, which points to weak or no binding.

| CDR-L1 | CDR-L2 | CDR-L3 | log10 Kd, replicates | log10 Kd (nM), mean | empty controls |
|---|---|---|---|---|---|
| KSRQSVLYESRNKNSVA | AASTRES | QQYHRLPLS | 0.52 / 1.15 / 0.94 / 0.72 / 0.98 / 0.65 | 0.83 | 1 of 18 (3.11) |
| KSSQSVLYESDNKNSVA | WASTRES | QQYCRLPLS | 1.13 / nd / nd / 2.11 / 2.40 / 1.96 | 1.90 | 0 of 18 |
| KVSQSVLYESENSNSVA | WASTRAK | QQYHRLPFS | 1.14 / 1.04 / 0.66 / 0.85 / 0.99 / 0.97 | 0.94 | 5 of 18 (2.93) |
| KSKQSRLYENRNTNSVA | WASTRES | QQYHRLPLS | 2.36 / 2.01 / nd / nd / 2.30 / nd | 2.23 | 1 of 18 (1.24) |
| KSSPSVLYESRNKNHVA | WASTRES | QQYHRLPLS | 2.54 / nd / nd / nd / nd / nd | 2.54 | 0 of 18 |
| KSSQNVLYESTNKNSVA | WAITRES | QQYHRLQKA | nd / nd / nd / nd / nd / nd | nd | 0 of 18 |
| KSSQSVAYESRNKNSVA | GASTRES | QQYHRLPLS | 0.10 / 0.37 / 0.40 / 0.22 / 0.94 / 0.21 | 0.37 | 0 of 18 |
| KSSQSVLEESRNKNSVA | WASTRES | QQYHNLPLS | 1.62 / 2.65 / 2.24 / 2.79 / 1.90 / 1.68 | 2.15 | 0 of 18 |
| KSSQSVLYESRNKNSVA | WASTRES | QVYHRLPLS | nd / nd / nd / nd / nd / nd | nd | 0 of 18 |
| KSSQSVLYESRNKNSVA | WASTRES | QPYHRLPLS | nd / nd / nd / nd / 2.33 / nd | 2.33 | 0 of 18 |
| KSQQSVLQESRNKNSVA | WASTRAS | QLYSRLPLS | nd / 1.75 / 1.62 / 2.03 / 2.39 / 1.97 | 1.95 | 2 of 18 (2.73) |
| KSSQSKCYESRNKNSVA | WASTRES | QQYHRLPLS | nd / nd / nd / nd / nd / nd | nd | 0 of 18 |
| KSSQSVLYESRNKNSVA | WASTRES | QQYHILPLS | nd / nd / nd / nd / nd / nd | nd | 0 of 18 |
| KASQSVLYESHNKNSVA | WADTRES | QQYHRLPLS | 0.70 / 3.49 / 1.70 / 1.53 / 1.69 / 1.47 | 1.76 | 0 of 18 |
| KQSQSVLYESRNRNSVA | WASTRTS | QQYHRLPLS | nd / 2.48 / nd / nd / 1.33 / nd | 1.91 | 1 of 18 (2.01) |
| VSSQSVLYEERNKNSVA | WASTRES | QQYHRLPLS | 2.32 / nd / 2.82 / nd / nd / 2.44 | 2.53 | 2 of 18 (2.66) |
| KSSQSVLYDSTNLNSVA | WASTRES | QQYMRLPLD | nd / nd / nd / 1.57 / nd / 3.10 | 2.34 | 1 of 18 (1.99) |
| KSSQSVLYESRNKNSVA | WASMREV | QQYHRLPLS | nd / nd / nd / nd / nd / nd | nd | 0 of 18 |
| KSSQSVLYEFRNKRSVA | SASVRES | QQYTRLPIS | 1.60 / 1.59 / 1.39 / 2.29 / 1.45 / 2.12 | 1.74 | 0 of 18 |
| KSFQSVLYESRNKNSVA | WASTREW | QQYHRLPLS | nd / nd / nd / nd / nd / nd | nd | 0 of 18 |
| QSSQSVQYESMNKNSVA | WASWRES | QQYHCLPLS | nd / nd / nd / nd / nd / nd | nd | 0 of 18 |
| KSSQSFLYESRNKNSVA | WAGTRES | YQYHRLPLS | nd / nd / nd / nd / nd / nd | nd | 1 of 18 (2.10) |
| KMAQSVLYESRNKNSVA | WASTRES | QQYHRLPLS | nd / 2.67 / nd / 2.71 / 2.24 / nd | 2.54 | 0 of 18 |
| MSSQSVLYESRNKNSVA | FASTREL | QQYHRLPLA | nd / nd / nd / nd / nd / nd | nd | 0 of 18 |
| KISQSVLTESRNKNSVA | AASTRES | QQYHWLPLS | 1.06 / 1.05 / 0.89 / 1.04 / 0.84 / 0.87 | 0.96 | 1 of 18 (2.20) |
| KSEQHMLYFSRNKNSVA | DASTRES | QQYHRSPLS | nd / nd / nd / nd / nd / 2.90 | 2.90 | 1 of 18 (2.21) |
| KLSPSVLPESRNNNSVA | KASTREQ | QQYHRLPLS | 1.29 / 0.74 / 0.52 / 0.29 / 0.42 / 0.49 | 0.63 | 0 of 18 |
| KSSQLVLYESRNENSVA | WASTRES | QQYHRLPLS | nd / nd / nd / nd / nd / 3.32 | 3.32 | 0 of 18 |
| KSEQSVLYESRNKNSVA | GASTRES | QQYHRLPLS | -0.32 / 0.16 / -0.31 / -0.27 / -0.10 / -0.01 | -0.14 | 0 of 18 |
| KWSQSVLYESRNKNSVA | WADTRES | QQYHRLPLS | 1.93 / 2.35 / nd / nd / 2.59 / 2.44 | 2.33 | 2 of 18 (2.33) |
| KSSQHVLYESRNKNSVA | KASTRES | QQYHRLPLS | 0.90 / 1.12 / 1.14 / 1.19 / 0.97 / 1.54 | 1.14 | 1 of 18 (3.02) |
| KSSPSVLYEQRNKNSVA | EASTREA | QQYHRLPLS | 0.78 / 0.30 / 0.36 / 0.07 / 0.32 / 0.38 | 0.37 | 1 of 18 (3.46) |
| KSSQSVLYESRNKNSVA | SASTRES | QQGHRLPLS | nd / nd / nd / nd / 2.04 / nd | 2.04 | 0 of 18 |
| KSGQSVLYASRNKNSVA | WATTREL | QQYERLPLS | nd / nd / nd / nd / nd / nd | nd | 0 of 18 |
| KNSQSCPPESRNKNSVA | WASTRES | QQYHRLPLS | 2.12 / nd / nd / nd / nd / nd | 2.12 | 1 of 18 (2.19) |
| KSSRSVLEESRNKNSVA | WASTRES | QQYHRLPLS | 1.52 / 2.28 / 1.23 / 1.11 / 1.46 / 1.39 | 1.50 | 1 of 18 (2.76) |
| KDSQSVLMESRNKNSVA | WASTREF | QKYHRLPLS | nd / nd / nd / nd / nd / nd | nd | 0 of 18 |
| KTSQSKLYDSSNKNSVA | EASTRNS | QQYHRLPLS | 0.55 / 0.61 / 0.54 / 0.54 / 0.62 / 0.60 | 0.58 | 1 of 18 (3.27) |
| KSTQSVLYESRNKNSVA | WASTRES | QQYARLPLS | 1.92 / 2.44 / 1.38 / 2.39 / 1.72 / 1.99 | 1.97 | 1 of 18 (3.43) |
| KSDQHVLYESRNKNSVA | WASTRES | QRYHRLPLS | nd / nd / nd / nd / nd / nd | nd | 0 of 18 |
| KVSQSVLEESRQKNSVA | WASTREA | QQYHRLPLS | 0.98 / 0.44 / 0.46 / 0.56 / 0.51 / 0.30 | 0.54 | 0 of 18 |
| KSNQEVEYESRNKNSVA | WASTRES | QQYHRLPLE | nd / 1.67 / nd / 2.23 / 1.67 / nd | 1.86 | 0 of 18 |
| KAEQSVLYPSRNKNSVA | QASTRES | QQYHRLPLS | 0.63 / 0.50 / 0.49 / 0.36 / 0.73 / 0.84 | 0.59 | 1 of 18 (1.71) |
| KSSQSVLYESRNKNSVA | WTSTREE | QQYHWLPLS | nd / 2.61 / 1.91 / 1.91 / 1.45 / nd | 1.97 | 0 of 18 |
| KSSQSVLDESSNKNSVA | EAYTRES | QQYHRLPLS | 0.74 / 0.38 / 0.23 / 0.01 / 0.46 / 0.60 | 0.40 | 2 of 18 (2.37) |
| KSSQSQSYESENKNSVA | DASTRES | QQYHRLPLS | -0.14 / -0.14 / 0.03 / -0.20 / -0.36 / 0.20 | -0.10 | 1 of 18 (2.38) |
| KISQSVLYPSRNKNSVA | WASTRES | QQYHRLPLS | 0.55 / -0.57 / -0.22 / -0.18 / -0.40 / -0.23 | -0.17 | 1 of 18 (1.66) |
| KMSQSVLYESRFKNSVA | WASTRES | QQYHRLPLS | 0.62 / nd / 0.04 / nd / nd / 1.32 | 0.66 | 0 of 18 |
| KSSQSVLYESRDKNSVA | NASTRES | QQPHRLPLS | -0.26 / -0.38 / -0.30 / -0.28 / -0.34 / 0.08 | -0.25 | 2 of 18 (2.57) |
| KSSQSVLYESRNKNSVA | QASTRES | QQYHRLPLS | 0.67 / 0.58 / 0.55 / 0.79 / 0.58 / 0.93 | 0.68 | 1 of 18 (2.85) |

The first 5 variants above that were never detected:

| CDR-L1 | CDR-L2 | CDR-L3 | log10 Kd, replicates | log10 Kd (nM), mean | empty controls |
|---|---|---|---|---|---|
| KSSQNVLYESTNKNSVA | WAITRES | QQYHRLQKA | nd / nd / nd / nd / nd / nd | nd | 0 of 18 |
| KSSQSVLYESRNKNSVA | WASTRES | QVYHRLPLS | nd / nd / nd / nd / nd / nd | nd | 0 of 18 |
| KSSQSKCYESRNKNSVA | WASTRES | QQYHRLPLS | nd / nd / nd / nd / nd / nd | nd | 0 of 18 |
| KSSQSVLYESRNKNSVA | WASTRES | QQYHILPLS | nd / nd / nd / nd / nd / nd | nd | 0 of 18 |
| KSSQSVLYESRNKNSVA | WASMREV | QQYHRLPLS | nd / nd / nd / nd / nd / nd | nd | 0 of 18 |

Background: pairings of all light chain designs with three empty control strains gave a value in 4% of cases (median 2.64, 5th percentile 1.59). Values in that range, when seen in few replicates, are hard to tell from nonspecific mating. The control count says in how many pairings with the empty strains this scFv gave a signal, with their mean in brackets. In the paper, a design with two or fewer of six values counts as a poor binder. Of ten entries with the parent sequence, four were seen in most replicates (averages 0.34 to 2.37), three in one and three in none, so single entries are noisy. A sequence measured in both rounds can read differently, since the two assays cover different ranges.

Data: MIT Lincoln Laboratory AlphaSeq set, Li et al. 2023, doi:10.1038/s41467-023-39022-2, as distributed in FLAb.